{"sequences": {"note": "Chains of the proteins cited; added tags and fusions are not shown. A line that says so, or that is headed by a name, gives the form on record, which may keep a tag or linker.", "zanidatamab precursor (human), light, as listed by the source, chain 2 of 2": "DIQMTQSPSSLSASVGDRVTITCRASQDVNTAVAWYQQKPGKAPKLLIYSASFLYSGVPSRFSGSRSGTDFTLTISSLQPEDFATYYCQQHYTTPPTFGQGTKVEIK"}, "source": "paper PMC10011572", "about": "(Nature Communications, 2023)", "biological_target": "zanidatamab precursor (human)", "assay": "SPR; zani precursor captured on immobilised goat anti-human Fc (CM5, Biacore T200), HER2 ECD 3.75-60 nM flowed; single-cycle, 1:1 Langmuir fit; apparent; capture/MW 1.030824782 RU/kDa", "data": [{"substance": "Recombinant human HER2 ECD (from UniProt P04626 23-652) (domain or fragment)", "values": [{"measurement": "Kd", "result": 0.578, "unit": "nM"}]}]}
